Reference: patent US20040121947A1, “Compounds which inhibit beta-secretase activity and methods of use thereof” (Oklahoma Medical Research Foundation, priority 2000, published 2004)

The chains behind the UniProt entries cited, without tags or fusion partners. Residues count along the entry.
UniProt P56817, 41-454 limits assumed: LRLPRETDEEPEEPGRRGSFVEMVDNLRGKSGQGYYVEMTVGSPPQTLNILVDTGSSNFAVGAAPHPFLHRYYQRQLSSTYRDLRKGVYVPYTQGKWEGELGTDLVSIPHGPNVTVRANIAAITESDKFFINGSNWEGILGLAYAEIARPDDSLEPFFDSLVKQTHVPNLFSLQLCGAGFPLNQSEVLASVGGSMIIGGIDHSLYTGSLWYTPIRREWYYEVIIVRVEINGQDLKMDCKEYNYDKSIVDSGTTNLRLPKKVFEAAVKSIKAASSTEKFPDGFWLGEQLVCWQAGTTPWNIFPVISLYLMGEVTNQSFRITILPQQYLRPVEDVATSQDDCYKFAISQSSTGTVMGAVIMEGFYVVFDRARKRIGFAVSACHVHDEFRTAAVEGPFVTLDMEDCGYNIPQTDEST

Molecular target: T1, memapsin 2 (Homo sapiens, UniProt P56817)
T1 construct: pET-11 vector-derived residues 1-15 of promemapsin 2-T1 (N, cleaved yes); made in house; host or cells: E. coli
Test: Inhibition of memapsin 2 proteolytic activity, fluorogenic substrate FS-2
Format: biochemical
Procedure: Ki is the inhibition equilibrium constant which indicates the ability of compounds to inhibit the β-secretase activity of memapsin 2 and memapsin 1. […] The K1 value is independent of the substrate, and converted from Ki apparent.
The Vi/Vo values depicted in Table 1 were determined at conditions under which the enzyme and inhibitor concentrations were equal (e.g., about 80 nM, 100 nM).
The relationship of Ki (independent of substrate concentration) to Kiapp is a function of substrate concentration in the assay and the Km for cleavage of the substrate by either memapsin 1 or memapsin 2 by the relationship:
The spontaneously activated memapsin 2 was employed in assays to assess the inhibition of memapsin 2 relative to memapsin 1 by compounds of the invention and in some crystallization studies.
An aliquot of the inhibitor of known concentration in DMSO was diluted into 1.8 ml 0.1 M NaOAc, pH 4.0. DMSO and added to a final concentration of 10% (v/v), and memapsin 2 (final concentration of 80 nM), followed by a 20 minute equilibration at 37° C. Compounds were evaluated for the ability to inhibit memapsin 1 and memapsin 2 at concentrations between about 10 nM and about 10 μm of inhibitor.

Improvement of Ki relative to OM99-2: 5.2 fold
SMILES: CC(C)C[C@H](NC(=O)[C@@H](N)CCC(=O)O)C(=O)N[C@@H](CC(=O)O)C(=O)N[C@@H](CC(C)C)[C@@H](O)C[C@@H](C)C(=O)N[C@H](C(=O)N[C@@H](CCC(=O)O)C(=O)N[C@@H](Cc1ccccc1)C(=O)O)C(C)C [OM00-3, ELDL*AVEF]
